Measured values reported in paper PMC11531469.

Molecular target: Cdc45Δe (Cdc45-7HIS mutant in which all the aspartic and glutamic residues were replaced with asparagine and glutamine) (budding yeast) (UniProt Q08032)
Experiment: native gel or EMSA; 0.5 uM Cdc45-7HIS mixed with 0-2 uM H3/H4 tetramer, 15 min at 30 °C; 25 mM HEPES-KOH pH 7.5, 1 mM EDTA, 10% glycerol, 0.05% Tween 20, 300 mM KCl; loss of the free Cdc45 band on 5-20% Tris-Glycine gel, Coomassie; apparent

Kd: 152 nM
Substance: histone H3/H4 tetramer (from UniProt P61830 1-136; P02309 1-103) (complex)
